In article PMC5928873 (Theranostics, 2018):

Tested on: HUVEC
Experiment: Tube formation assay
Assay type: cell-based, human
Settings: peptides pre-incubated 30 min, VEGF 10 ng/mL, Matrigel, 6 h

HSA: Recombinant human serum albumin
tube formation of HUVEC cells induced by VEGF (total tube length): no inhibitory effect
